Test results published in ChEMBL document CHEMBL1145826, “New pyrimido[5,4-b]indoles as ligands for alpha(1)-adrenoceptor subtypes” (J Med Chem, 2003).

Sequences of proteins named here, by UniProt entry; tags and fusion partners are left off.
UniProt P35368, whole entry: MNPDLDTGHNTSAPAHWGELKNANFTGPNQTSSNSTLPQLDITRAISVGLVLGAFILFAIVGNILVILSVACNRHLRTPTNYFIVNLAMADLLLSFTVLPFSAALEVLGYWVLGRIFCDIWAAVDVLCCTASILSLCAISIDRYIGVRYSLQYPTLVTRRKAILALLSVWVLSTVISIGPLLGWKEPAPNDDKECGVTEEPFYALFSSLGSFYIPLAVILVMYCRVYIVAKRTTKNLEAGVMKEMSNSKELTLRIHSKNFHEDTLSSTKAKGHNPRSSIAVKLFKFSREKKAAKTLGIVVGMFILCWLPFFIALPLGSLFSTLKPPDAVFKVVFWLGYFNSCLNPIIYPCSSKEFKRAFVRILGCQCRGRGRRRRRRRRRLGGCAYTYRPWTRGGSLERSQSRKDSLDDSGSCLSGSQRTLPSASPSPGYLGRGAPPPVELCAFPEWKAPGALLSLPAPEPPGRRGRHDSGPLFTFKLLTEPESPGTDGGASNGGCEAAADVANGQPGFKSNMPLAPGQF

Target: Alpha-1B adrenergic receptor (Homo sapiens, UniProt P35368)
Assay: In vitro binding affinity at human Alpha-1B adrenergic receptor.
Outline: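 Human α1A-, α1B- or α1D-AR stably expressed in HEK293 cells (calcium phosphate transfection, subclones chosen for high expression); membranes from scraped, homogenized cells spun at 30000g. Three experiments in duplicate, mean ± SE.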

## C[C@H](CN1CCN(c2cc(F)c(F)cc2F)CC1)N1C(=O)CC2(CCCC2)CC1=O
  Ki: 191 nM
